## Apparent affinities of Ab-14 variants for a coronavirus HR2 peptide

Reference: Engelhart et al. 2022, doi:10.1038/s41597-022-01779-4. File: FLAb, binding data.

The target is the same throughout: PDVDLGDISGINAS, from the HR2 region of SARS-CoV-2 spike.

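In library AAYL50, one, two or three CDR residues were substituted; doubles and triples were drawn at random. The assay is AlphaSeq: two haploid yeast populations carry antibody and antigen on their surface. Mating (16 h, 30 °C) was followed by selection of diploids and sequencing of their barcodes. The ratio of observed to expected reads was calibrated, replicate by replicate, on BCL2-family standards whose Kd was known from biolayer interferometry. The assay was run in three technical replicates.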

Ab-14 is the parent antibody, in scFv form: VH, then a 15-residue (Gly4Ser)3 linker, then VL. The heavy chain is unchanged in all variants.
VH: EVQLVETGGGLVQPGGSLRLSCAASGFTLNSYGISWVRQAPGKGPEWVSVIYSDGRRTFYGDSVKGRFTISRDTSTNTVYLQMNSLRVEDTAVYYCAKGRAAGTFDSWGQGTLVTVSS
VL: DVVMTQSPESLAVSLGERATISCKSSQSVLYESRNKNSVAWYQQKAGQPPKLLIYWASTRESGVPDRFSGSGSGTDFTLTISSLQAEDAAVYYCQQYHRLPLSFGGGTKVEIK

The whole VL of each variant is written out. The read-out is the apparent dissociation constant on a log10 scale (nM): the lower, the stronger. Averages over replicates are reported, and they cover detected replicates only. "n.d." marks a missing value. The strain was present, yet no cells mated with the target were sequenced in that replicate, which points to weak or no binding. Three control strains display no target. For library AAYL50, 18% of the pairings with them gave a signal, with a median of 4.19 and one signal in twenty below 2.99, so weak values seen in few replicates may be background. Also given: how often the same scFv was detected with the empty control strains, with their mean in brackets. For reference, the parent read 0.65 as the reference entry and 1.68 as a member of this library.

| VL | log10 Kd (nM) by replicate | mean log10 Kd (nM) | empty controls |
|---|---|---|---|
| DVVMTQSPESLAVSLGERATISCKSSQWVLYESRNKNSVAWYQQKAGQPPKLLIYWASTIESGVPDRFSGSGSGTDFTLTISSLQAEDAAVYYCQQYHRLPLSFGGGTKVEIK | n.d. / n.d. / 4.38 | 4.38 | 0/9 |
| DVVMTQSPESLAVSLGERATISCKSSQIVLHEGRNKNSVAWYQQKAGQPPKLLIYWASTRESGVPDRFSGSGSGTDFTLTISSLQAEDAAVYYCQQYHRLPLSFGGGTKVEIK | 1.65 / 1.78 / 1.93 | 1.79 | 4/9 (3.99) |
| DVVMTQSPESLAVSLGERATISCKSSQSVLYESRNKNSVAWYQQKAGQPPKLLIYWASTRESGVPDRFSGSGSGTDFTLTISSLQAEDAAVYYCFQYHRLSLSFGGGTKVEIK | n.d. / n.d. / n.d. | n.d. | 3/9 (5.01) |
| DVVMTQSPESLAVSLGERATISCKSSQSVMYESRNKNDHAWYQQKAGQPPKLLIYWASTRESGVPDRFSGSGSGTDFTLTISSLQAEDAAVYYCQQYHRLPLSFGGGTKVEIK | n.d. / 4.25 / n.d. | 4.25 | 1/9 (2.81) |
| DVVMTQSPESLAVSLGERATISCKSSQSVLYESRNKNSVAWYQQKAGQPPKLLIYWFSTRSSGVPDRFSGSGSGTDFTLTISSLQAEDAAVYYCQQYHRTPLSFGGGTKVEIK | 5.82 / n.d. / n.d. | 5.82 | 2/9 (4.80) |
| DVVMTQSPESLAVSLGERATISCKSSQSWLYESRNKNSVAWYQQKAGQPPKLLIYWASTRRSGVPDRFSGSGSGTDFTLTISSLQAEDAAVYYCQQYHRLQLSFGGGTKVEIK | 3.97 / 4.98 / n.d. | 4.48 | 1/9 (5.39) |
| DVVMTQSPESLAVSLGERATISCKSSQSVLYESRNKNSVGWYQQKAGQPPKLLIYWASIRESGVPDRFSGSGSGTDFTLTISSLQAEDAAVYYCQQYHRLPPSFGGGTKVEIK | 5.58 / 4.08 / 5.49 | 5.05 | 6/9 (4.28) |
| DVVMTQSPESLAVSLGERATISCKSSQSALYESRNKNSVAWYQQKAGQPPKLLIYWASTRESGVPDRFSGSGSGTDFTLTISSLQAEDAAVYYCAQYHRLPFSFGGGTKVEIK | 1.87 / 2.88 / n.d. | 2.38 | 0/9 |
| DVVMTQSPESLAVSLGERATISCKSSQSVLYESRNYNSVAWYQQKAGQPPKLLIYWASTRESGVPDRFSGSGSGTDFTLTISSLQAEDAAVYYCQQYHWLPLSFGGGTKVEIK | 2.11 / 1.86 / 1.92 | 1.96 | 2/9 (4.13) |
| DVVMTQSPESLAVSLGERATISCKSSQSVLPESANKNSVAWYQQKAGQPPKLLIYWASTRESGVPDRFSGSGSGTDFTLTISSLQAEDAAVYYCQQYHPLPLSFGGGTKVEIK | 0.64 / 0.76 / 0.77 | 0.72 | 1/9 (2.54) |
| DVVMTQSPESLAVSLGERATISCKSSQSVLVESRNKNSVAWYQQKAGQPPKLLIYWAHTRESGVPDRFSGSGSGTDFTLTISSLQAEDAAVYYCQQYHRLPLSFGGGTKVEIK | 0.88 / 1.11 / 1.25 | 1.08 | 3/9 (4.28) |
| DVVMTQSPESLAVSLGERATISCKSSQSVLYASRNKNSVAWYQQKAGQPPKLLIYWACTRESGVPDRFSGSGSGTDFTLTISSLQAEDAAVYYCQQYHRLVLSFGGGTKVEIK | 2.81 / 3.15 / 3.20 | 3.05 | 2/9 (3.94) |
| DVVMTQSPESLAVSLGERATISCKSSQSVLYESRNKNSVQWYQQKAGQPPKLLIYWAWTRESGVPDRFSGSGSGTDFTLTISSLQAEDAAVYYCQQYHRLPNSFGGGTKVEIK | n.d. / n.d. / n.d. | n.d. | 2/9 (4.92) |
| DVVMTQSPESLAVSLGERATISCKSSQSVLYESRNKNSVAWYQQKAGQPPKLLIYAASTREHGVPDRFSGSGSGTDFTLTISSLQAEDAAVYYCQQYHRGPLSFGGGTKVEIK | n.d. / n.d. / n.d. | n.d. | 0/9 |
| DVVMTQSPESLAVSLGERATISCKSSQSVLYESRNKNSVAWYQQKAGQPPKLLIYWASTREIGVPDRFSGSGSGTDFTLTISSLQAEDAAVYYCQQYPILPLSFGGGTKVEIK | 3.48 / n.d. / n.d. | 3.48 | 2/9 (4.65) |
| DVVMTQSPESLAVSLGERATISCCSSQSVLYESRESNSVAWYQQKAGQPPKLLIYWASTRESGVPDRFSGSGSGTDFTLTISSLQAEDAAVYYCQQYHRLPLSFGGGTKVEIK | 2.64 / 2.22 / 2.18 | 2.35 | 2/9 (4.22) |
| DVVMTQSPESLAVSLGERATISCKSSQSVLYEIRNKNSEAWYQQKAGQPPKLLIYYASTRESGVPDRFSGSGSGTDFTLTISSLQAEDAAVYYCQQYHRLPLSFGGGTKVEIK | n.d. / n.d. / n.d. | n.d. | 3/9 (4.28) |
| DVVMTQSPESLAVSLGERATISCLSFQSVLYESRNKNSVAWYQQKAGQPPKLLIYWAKTRESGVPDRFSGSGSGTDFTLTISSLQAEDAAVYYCQQYHRLPLSFGGGTKVEIK | n.d. / n.d. / n.d. | n.d. | 1/9 (5.01) |
| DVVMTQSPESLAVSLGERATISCKSSQSVLYESRNKNSVHWYQQKAGQPPKLLIYWASTRESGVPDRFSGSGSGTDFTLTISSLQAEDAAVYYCQQYMRLPLDFGGGTKVEIK | n.d. / n.d. / n.d. | n.d. | 1/9 (3.13) |
| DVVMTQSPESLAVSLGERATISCKSSESVLYESRNKNSVAWYQQKAGQPPKLLIYWASTRESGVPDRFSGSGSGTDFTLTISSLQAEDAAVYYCQQYHRLPLNFGGGTKVEIK | 1.46 / 1.47 / 1.39 | 1.44 | 0/9 |
| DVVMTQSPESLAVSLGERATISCKSSQRVLYESRNKNSVAWYQQKAGQPPKLLIYWASTREIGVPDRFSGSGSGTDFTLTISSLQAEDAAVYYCQQYHRLPLSFGGGTKVEIK | 1.24 / 1.35 / 1.11 | 1.23 | 0/9 |
| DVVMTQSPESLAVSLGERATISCKSSQSVLYESRNKNSVAWYQQKAGQPPKLLIYWMSTREVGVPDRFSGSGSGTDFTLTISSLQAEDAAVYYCPQYHRLPLSFGGGTKVEIK | 3.40 / n.d. / n.d. | 3.40 | 2/9 (3.12) |
| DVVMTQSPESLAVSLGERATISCLSSQSVLSESRNKNSVVWYQQKAGQPPKLLIYWASTRESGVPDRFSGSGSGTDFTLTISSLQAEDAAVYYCQQYHRLPLSFGGGTKVEIK | n.d. / 4.35 / n.d. | 4.35 | 7/9 (5.06) |
| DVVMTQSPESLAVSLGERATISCWSSQSVLYESRNKNSVAWYQQKAGQPPKLLIYWASYRESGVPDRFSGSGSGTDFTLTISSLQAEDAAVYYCKQYHRLPLSFGGGTKVEIK | 5.13 / n.d. / n.d. | 5.13 | 0/9 |
| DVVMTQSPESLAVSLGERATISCKSSQSVLYESTMKNSVAWYQQKAGQPPKLLIYWASTRESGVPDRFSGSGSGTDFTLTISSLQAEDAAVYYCQQYHRLPHSFGGGTKVEIK | n.d. / n.d. / n.d. | n.d. | 1/9 (4.39) |
| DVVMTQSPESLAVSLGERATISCKSSQSVLYESRNKNSVAWYQQKAGQPPKLLIYWASTREWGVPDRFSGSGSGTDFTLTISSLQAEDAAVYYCQLHHRLPLSFGGGTKVEIK | 3.72 / 3.62 / n.d. | 3.67 | 3/9 (3.99) |

Repeated from above, the 4 best binders with a signal in all replicates:

VL	log10 Kd (nM) by replicate	mean log10 Kd (nM)	empty controls
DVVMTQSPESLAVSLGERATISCKSSQSVLPESANKNSVAWYQQKAGQPPKLLIYWASTRESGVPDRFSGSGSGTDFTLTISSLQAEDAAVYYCQQYHPLPLSFGGGTKVEIK	0.64 / 0.76 / 0.77	0.72	1/9 (2.54)
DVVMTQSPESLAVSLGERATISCKSSQSVLVESRNKNSVAWYQQKAGQPPKLLIYWAHTRESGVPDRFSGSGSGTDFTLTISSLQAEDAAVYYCQQYHRLPLSFGGGTKVEIK	0.88 / 1.11 / 1.25	1.08	3/9 (4.28)
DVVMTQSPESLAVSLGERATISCKSSQRVLYESRNKNSVAWYQQKAGQPPKLLIYWASTREIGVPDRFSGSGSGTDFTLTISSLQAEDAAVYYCQQYHRLPLSFGGGTKVEIK	1.24 / 1.35 / 1.11	1.23	0/9
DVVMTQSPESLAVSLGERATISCKSSESVLYESRNKNSVAWYQQKAGQPPKLLIYWASTRESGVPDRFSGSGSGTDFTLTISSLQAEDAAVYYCQQYHRLPLNFGGGTKVEIK	1.46 / 1.47 / 1.39	1.44	0/9